This note sets out measurements from US11319303B2 (WIGEN BIOMEDICINE TECHNOLOGY (SHANGHAI) CO., LTD., priority 2017, dated 2022).

Structures are written as SMILES. Some results are limits rather than exact numbers.

For the first assay, the target named is LC3B (Homo sapiens, UniProt Q9GZQ8). As to the kind of experiment: Fluorescence Polarization (FP) Assay: displacement of FITC-labeled peptide from GST-LC3B. It is filed as binding. The settings on record: GST-LC3B 180 nM, FITC-labeled peptide 18 nM, 25° C. For orientation: In fluorescence polarisation assays a small probe gives low polarisation when free and higher when bound to something large.
Usually IC50 stands for the midpoint of a concentration-inhibition curve. Turning to `COC(=O)c1cccc(C2CC(=O)C(=CN(C)C)C(=O)C2)c1` (centres unmarked), the IC50 is under 3 µM.
On the same count and under the same terms, the same measure for `O=C1CC(/C=C/c2ccccc2)CC(=O)C1=CNCCN1CCN(CCO)CC1` (centres unmarked): 3 to 15 µM; for `CC(C)(C)OC(=O)N1CCC(NC=C2C(=O)CC(c3ccccc3)CC2=O)CC1` (centres unmarked): 100 to 1000 µM.
Molecule `COC(=O)N1CCN(CCNC=C2C(=O)CC(c3ccc(C)cc3)CC2=O)CC1` (centres unmarked) came in with an IC50 of under 3 µM.
Still for that read-out and setting: the value for `CN(C)CCNC=C1C(=O)CC(c2ccccc2NC(=O)OC(C)(C)C)CC1=O` (centres unmarked) was under 3 µM; that for `O=C1CC(c2cc(O)ccc2Br)CC(=O)C1=CNCCN1CCN(CCO)CC1` (centres unmarked) was under 3 µM; that for `Cc1ccc(C2CC(=O)C(=CNCCN3CCN(C(=S)Nc4ccc(F)cc4)CC3)C(=O)C2)cc1` (centres unmarked) was 3 to 15 µM.
On the same count and under the same terms, the value for `COC(=O)c1ccc(C2CC(=O)C(=CNCCN3CCOCC3)C(=O)C2)cc1` (centres unmarked) was under 3 µM; that for `Cc1ccc(NC(=O)CN2CCN(CCNC=C3C(=O)CC(c4cccc5[nH]ccc45)CC3=O)CC2)cc1` (centres unmarked) was under 3 µM.
The same measure, in the same setting: the value for `COC(=O)c1ccc(C2CC(=O)C(=CN(C)C)C(=O)C2)cc1` (centres unmarked) was under 3 µM.
`CC(C)(C)OC(=O)NCCCCCCNC=C1C(=O)CC(c2ccccc2)CC1=O` (centres unmarked): the IC50 is 100 to 1000 µM.
`CN(CCNC=C1C(=O)CC(c2ccccc2)CC1=O)C(=O)OC(C)(C)C` (centres unmarked) showed an IC50 of 100 to 1000 µM.
Still for that read-out and setting: the value for `CN(C)C=C1C(=O)CC(c2cccc(C(=O)NCCCc3ccccc3)c2)CC1=O` (centres unmarked) was 3 to 15 µM; that for `COC(=O)c1ccc(NC=C2C(=O)CC(c3ccccc3)CC2=O)nc1` (centres unmarked) was 15 to 100 µM.
On the same count and under the same terms, the value for `COC(=O)c1ccccc1C1CC(=O)C(=CNCCN(C)C)C(=O)C1` (centres unmarked) was under 3 µM; that for `CN(C)CCNC=C1C(=O)CC(C(=O)Nc2ccc(C(F)(F)F)cc2)CC1=O` (centres unmarked) was 3 to 15 µM.
Still for that read-out and setting: the same measure for `CCOC(=O)c1csc(NC=C2C(=O)CC(c3ccccc3)CC2=O)n1` (centres unmarked): under 3 µM; for `CC(C)(C)OC(=O)N1CCC(CNC=C2C(=O)CC(c3ccccc3)CC2=O)CC1` (centres unmarked): 100 to 1000 µM; for `CN(C)C=C1C(=O)CC(c2cccc(C(N)=O)c2)CC1=O` (centres unmarked): 3 to 15 µM.
For the molecule `Cc1ccc(NC(=O)CN2CCN(CCNC=C3C(=O)CC(c4cccc5[nH]cc(Cl)c45)CC3=O)CC2)cc1` (centres unmarked), the IC50 is under 3 µM.
In the case of `CC(=O)OCC(NCCN1CCN(CCO)CC1)=C1C(=O)CC(c2ccccc2)CC1=O` (centres unmarked), the IC50 lay within 100 to 1000 µM.
Consider `N=C(N)CNC=C1C(=O)CC(c2ccccc2)CC1=O` (centres unmarked), for which the IC50 was 3 to 15 µM.

The assay is the same for the next values; noted with them: GST-LC3B 180 nM, FITC-labeled peptide 18 nM, 25° C., tested form: Na salt.
Turning to `O=C1CC(c2cccs2)CC(=O)C1=CO` (single isomer, unassigned), the IC50 is 3 to 15 µM.
